Measurements from patent US5336483A (priority 1993, dated 1994).

Sequences of proteins named here, by UniProt entry; tags and fusion partners are left off. A change or cut given only in a name is not applied to a line headed by its entry.
UniProt P41144: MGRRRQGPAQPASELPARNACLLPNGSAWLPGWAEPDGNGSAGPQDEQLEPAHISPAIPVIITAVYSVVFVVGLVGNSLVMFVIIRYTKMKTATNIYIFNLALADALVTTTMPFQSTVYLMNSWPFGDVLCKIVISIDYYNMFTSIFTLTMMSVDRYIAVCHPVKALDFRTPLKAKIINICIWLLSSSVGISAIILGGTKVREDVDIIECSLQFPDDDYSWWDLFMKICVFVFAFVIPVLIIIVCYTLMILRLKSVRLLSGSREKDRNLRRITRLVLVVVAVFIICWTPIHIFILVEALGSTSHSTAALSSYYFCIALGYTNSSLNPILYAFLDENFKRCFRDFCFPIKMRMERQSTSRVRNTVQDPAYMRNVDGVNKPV

Target: κ1 receptor (Cavia porcellus, UniProt P41144)
Conditions: read-out: Kd of radioligand; [^3 H]U69,593

CN(C(=O)Cc1ccccc1)C1CCC2(CCCO2)CC1N1CCCC1 (stereo not shown) showed a Kd of 1.6 nM.
